{
  "source": "patent US11026423B2",
  "about": "“Herbicidal compositions and methods” (SePRO Corporation, priority 2013, dated 2021)",
  "key": {"[1]": {"test_system": "soybean", "assay": "Pot demonstration of safening in soybean (FIG. 5)", "format": "in vivo", "experimental": "This evidences a very unique safening interaction of fluridone plus PPO-inhibitors by crop species without the interaction causing a similar safening effect on the weed. […] FIG. 5 illustrates the safening effect of the fluridone and flumioxazin combination on soybean. […] The pot on the right, soybeans were treated with both fluridone and flumioxazin, with the resulting plants having no bleaching, while still maintaining significant weed control."}, "[2]": {"test_system": "soybean plants", "assay": "Example 3 growth chamber trial, pre-emergent application on soybean", "format": "in vivo", "conditions": "fluridone alone, pre-emergent (FIG. 10)", "experimental": "(§1) 0.1 L conical assay tubes were planted with a cotton or soybean seed in a sample of sandy loam soil. Seven tubes were prepared for each herbicide application rate. Application of a herbicide composition was performed after planting the seed and prior to the plant's emergence from the soil (i.e., pre-emergent or PRE). Approximately 0.15 inches of water was applied to each pot four hours after application. […] The greenhouse was maintained at 26±5° C. during the day and 11±1° C. during the night."}, "[3]": {"test_system": "cotton plants", "assay": "Example 3 growth chamber trial, pre-emergent application on cotton", "format": "in vivo", "conditions": "0.2 lb/A fluridone, seven tubes", "experimental": "as §1"}, "[4]": {"test_system": "sweet almond (Prunus dulcis)", "assay": "Example 6 field trials: almond tolerance", "format": "in vivo", "experimental": "Field trials were conducted in California to determine sweet almond (Prunus dulcis) tolerance to fluridone and efficacy of fluridone in an irrigated orchard environment. Trial locations included a two-year old almond stand in Kerman, Calif. and a six-year old stand in Shafter, Calif. The soil in both locations is classified as a sandy loam. Applications prior to emergence of weeds (PRE) of herbicides were made in the month of January in Kerman and in the month of January in Shafter. Herbicide treatments in both locations included fluridone applied at 0.1 lb/ac (about 11.25 kg/km^2), 0.2 lb/ac (about 22.5 kg/km^2), 0.4 lb/ac (about 45 kg/km^2), and 0.8 lb/ac (about 90 kg/km^2) and flumioxazin at 0.38 lb/ac (about 42.75 kg/km^2)(Table 9). Rainfall (0.32 in (about 0.813 cm)) and irrigation (1.5 in (about 3.81 cm)) one day after PRE applications were used to incorporate herbicides into the soil at the Kerman and Shafter locations, respectively. […] Visual evaluations of crop injury and weed control were made monthly on a 0 to 100% scale. Postemergent (POST) broadcast applications of a non-selective, contact herbicide was broadcast across all treatments in Kerman prior to the 90 days after treatment and 119 days after treatment (DAT) ratings. Thus, data from those ratings dates was not evaluated. No POST applications were made in Shafter."}, "[5]": {"test_system": "'Thompson' grape (Vitis vinifera)", "assay": "Example 7 field trials: grape tolerance", "format": "in vivo", "conditions": "PRE application, Kerman and Kingsburg", "excerpt": "Trials were placed in grape vineyards located in Kerman and Kingsburg, Calif. The soil in both locations is classified as a sandy loam. Preemergent herbicide applications were made in the month of January in Kerman and in the month of March in Kingsburg. Herbicide treatments in both locations included fluridone applied at 0.1 lb/ac (about 11.25 kg/km^2), 0.2 lb/ac (about 22.5 kg/km^2), 0.4 lb/ac (about 45 kg/km^2), and 0.8 lb/ac (about 90 kg/km^2) and flumioxazin at 0.38 lb/ac (about 42.75 kg/km^2) (Table 9, supra). Additionally, indaziflam applied at 0.065 lb/ac was included at the Kingsburg site. […] Visual evaluations of crop injury and weed control were made monthly on a 0 to 100% scale. Cultivation occurred in the row centers at the Kerman location following the 58 DAT evaluations, and therefore, the Kerman results following 58 DAT were not evaluated. No cultivation occurred in Kingsburg during the trial period."}, "[6]": {"test_system": "walnut trees (Chandler variety)", "assay": "Example 11 walnut orchard field trial: crop tolerance", "format": "in vivo, English Walnut", "conditions": "dormant 4th year walnut orchard", "experimental": "A field trial was performed in a dormant 4th year walnut orchard (Chandler variety) located near Stockton, Calif. The trial was initiated in December for weed efficacy studies and crop tolerance studies. Plots were about 8 feet by about 18 feet (about 2.43 meters by about 5.49 meters) with one tree per plot arranged in a randomized complete block design with three replications. Fluridone, flumioxazin, Roundup, and glufosinate ammonium were tested."}, "[7]": {"test_system": "nonpareil almond", "assay": "Example 12 Arbuckle almond orchard: crop safety", "format": "in vivo", "conditions": "any application rates", "experimental": "(§2) A field trial was conducted in northern California for weed control and safety in one peach orchand and two almond orchards. The herbicide applications were made between January and February when the tree crops were dormant.\nWeed control and crop safety were evaluated at approximately 1, 2, and 3 months after treatment. Weed pressure was fairly heavy, and uniform over the trial site. Populations of hare barley, annual sowthistle, black medic, chickweed, and redstem filaree were recorded."}, "[8]": {"test_system": "nonpareil almond", "assay": "Example 12 UC Davis almond orchard: crop safety", "format": "in vivo", "conditions": "1 to 5 months after treatment", "experimental": "as §2\nWeed control and crop safety were evaluated approximately 1, 2, 3, 4, and 5 months after treatment with fluridone."}, "[9]": {"test_system": "peach", "assay": "Example 12 Marysville peach orchard: crop safety", "format": "in vivo", "conditions": "1 to 5 months after treatment", "experimental": "as §2\nCrop safety was evaluated approximately 1, 2, 3, 4, and 5 months after treatment with fluridone."}, "[10]": {"test_system": "\"Cara Cara\" orange (Citrus sinensis)", "assay": "Example 8 field trial: orange tolerance", "conditions": "Elderwood, PRE application, trial period"}},
  "data": [
    {"substance": "1-methyl-3-phenyl-5-[3-(trifluromethyl)phenyl]-4(1H)-pyridone [fluridone]", "values": [
      {"measurement": "bleaching", "setting": "[1]", "value": "causes bleaching to the cotyledon"},
      {"measurement": "percentage of chlorosis", "setting": "[2]", "value": 80, "unit": "%"},
      {"measurement": "crop stand (number of viable plants)", "setting": "[3]", "value": "four surviving plants out of seven"},
      {"measurement": "phytotoxicity", "setting": "[4]; Kerman, any PRE herbicide application", "value": "Phytotoxicity was not observed"},
      {"measurement": "greatest phytotoxicity", "setting": "[4]; Shafter, 158 and 180 DAT, 0.8 lb fluridone/ac, PRE", "value": 8.3, "unit": "%"},
      {"measurement": "phytotoxicity", "setting": "[5]", "value": "Phytotoxicity was not observed"},
      {"measurement": "phytotoxicity", "setting": "[5]; listed as Fluridone", "value": "did not result in phytotoxicity"},
      {"measurement": "walnut tree tolerance", "setting": "[6]", "value": "no visual leaf symptoms or retarded tree growth"},
      {"measurement": "phytotoxicity symptoms", "setting": "[7]", "value": "no phytotoxicity symptoms were observed"},
      {"measurement": "phytotoxicity symptoms", "setting": "[8]", "value": "no phytotoxicity symptoms were observed"},
      {"measurement": "phytotoxicity symptoms", "setting": "[9]", "value": "No phytotoxicitity symptoms were observed"},
      {"measurement": "phytotoxicity", "setting": "[10]", "value": "did not contribute to phytotoxicity"},
      {"measurement": "phytotoxicity", "setting": "[10]; listed as Fluridone", "value": "did not result in phytotoxicity"}
    ]}
  ]
}
